Measurements: patent US10035790B2, “RORγ modulators” (BRISTOL-MYERS SQUIBB COMPANY, priority 2012, dated 2018)

By UniProt entry, the sequences of proteins in these tests, tags left out. Residues count along the entry.
UniProt P51449, 262-507 limits assumed: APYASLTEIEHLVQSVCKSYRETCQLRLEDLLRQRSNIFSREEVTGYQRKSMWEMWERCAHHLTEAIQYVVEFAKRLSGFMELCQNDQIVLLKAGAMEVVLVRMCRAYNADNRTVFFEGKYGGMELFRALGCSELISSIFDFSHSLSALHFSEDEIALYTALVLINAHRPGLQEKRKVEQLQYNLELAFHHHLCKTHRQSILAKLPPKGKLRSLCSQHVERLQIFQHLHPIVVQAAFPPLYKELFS

Target: ligand binding domain of human RORγ (A262-S507) (Homo sapiens, UniProt P51449)
Test: General RORγ SPA binding assay (competition with [3H]25-hydroxycholesterol)
Conditions: inhibition of [3H]25-hydroxycholesterol binding

`Nc1ncc(C(F)(F)COc2cccc(C(F)(F)F)n2)c(C2CCN(C(=O)Nc3c(F)cccc3F)CC2)n1` was tested, and the IC50 was 1.9 nM.
